Amino acid sequences for entries named in this document (tags omitted). Residues count along the entry.
UniProt Q14790, 385-479 limits assumed: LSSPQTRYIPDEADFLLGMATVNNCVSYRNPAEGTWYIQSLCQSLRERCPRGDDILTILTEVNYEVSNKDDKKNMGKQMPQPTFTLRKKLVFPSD
UniProt Q14790, 217-374 limits assumed: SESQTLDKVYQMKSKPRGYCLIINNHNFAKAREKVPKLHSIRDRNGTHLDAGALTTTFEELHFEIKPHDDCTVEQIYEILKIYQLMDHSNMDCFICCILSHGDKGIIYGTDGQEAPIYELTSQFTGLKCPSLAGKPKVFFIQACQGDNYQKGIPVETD

In patent US10316100B2, “Treating basal-like genotype cancers” (The UAB Research Foundation, priority 2009, dated 2019):

Biological target: T1, caspase-8 (Homo sapiens, UniProt Q14790)
T1 construct: purchased EMD Biosciences, Inc (San Diego, Calif.)
Test: Assay of caspase activity in vitro (Ac-IETD-AMC)
Type: biochemical
Conditions: active caspase-8, Ac-IETD-AMC
Method: Fluorometric assays were conducted in 96-well clear bottom plates, and all measurements were carried out in triplicate wells. 100 μl of assay buffer (10 mM HEPES pH 7.0, 50 mM NaCl, 2 mM MgCl2, 5 mM EDTA, and 1 mM DTT) was added. Active caspase-8 and peptide substrates (Ac-IETD-AMC) were added to each well to a final concentration of 100 ng/μl. Co-immunoprecipitation eluted fraction was added to start the reaction. Background fluorescence was measured in wells containing assay buffer, substrate, and lysis buffer without the cell lysates. Assay plates were incubated at 37° C. for 1 hour. Fluorescence was measured on a fluorescence plate reader (Bio-Tek; Winooski, Vt.) set at 355-nm excitation and 440-nm emission.
As cleavage of DDX3 was inhibited in the induced resistant cells, it promoted a study to determine the step in apoptosis signaling in which DDX3 inhibits DR5-mediated apoptosis. The DDX3/cIAP1 complex was predicted to inhibit caspase-8 activation; therefore, the activation of caspase-8 at the DR5-DDX3-cIAP1 complex as one of the first detectable events after receptor triggering was examined. To assess the effect of the DR5-DDX3-cIAP1 complex on caspase-8 activation, the caspase activity was measured using the fluorogenic substrate, Ac-IETD-AMC, incubated with active caspase-8 and DDX3 co-IP eluted fractions from parental sensitive or induced resistant cells. […]

purified cIAP1: purified cIAP1 protein, inhibitor of apoptosis
caspase-8 protease activity: suppressed caspase-8 protease activity completely
